In US11912763 (dated 2024):

Molecular target: human CLDN18.2 (human, UniProt P56856)
Experiment: ELISA

B1: LB305 CLDN18.2 arm (antibody)
chain 1: QVQLVQSGAEVKKPGSSVKVSCKASGYAFSNYLIEWVKQAPGQGLEWIGLINPGSGGTNYNEKFKGKATITADKSTSTAYMELSSLRSEDTAVYYCARVYYGNSFAYWGQGTLVTVSS
chain 2: DIVMTQSPDSLAVSLGERATISCKSSQSLLNSGNQKNYLTWYQQKPGQPPKLLIYWASTRESGVPDRFSGSGSGTDFTLTISSLQAEDVAVYYCQNDYFYPFTFGQGTKLEIK
- EC50: 0.44 nM
